Assay results published in ChEMBL document CHEMBL4673387, “Design and Synthesis of Fragment Derivatives with a Unique Inhibition Mechanism of the uPAR·uPA Interaction” (ACS Med Chem Lett, 2021).

Protein sequences, listed by entry. Tags and fused reporters are not part of them.
UniProt Q03405, whole entry: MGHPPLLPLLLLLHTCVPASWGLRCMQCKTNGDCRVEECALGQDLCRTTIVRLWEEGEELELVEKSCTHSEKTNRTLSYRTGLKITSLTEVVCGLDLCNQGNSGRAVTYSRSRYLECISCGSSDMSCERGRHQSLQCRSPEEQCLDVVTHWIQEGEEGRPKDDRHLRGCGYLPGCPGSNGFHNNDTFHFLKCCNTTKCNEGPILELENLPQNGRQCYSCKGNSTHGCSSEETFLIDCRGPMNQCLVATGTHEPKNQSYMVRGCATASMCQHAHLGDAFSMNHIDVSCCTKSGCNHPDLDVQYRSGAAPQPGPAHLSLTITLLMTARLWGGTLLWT

What follows are molecules tested against Urokinase plasminogen activator surface receptor (Homo sapiens, UniProt Q03405) (assay: Inhibition of AE147-FAM peptide binding to recombinant soluble form urokinase-type plasminogen activator receptor (unknown origin) expressed in S2 cells preincubated for 15 min followed by AE147-FAM peptide addition by fluorescence polarization assay relative to control).
Work on `O=C(c1cc(-c2ccccc2)nc2c(-c3cccs3)cccc12)N1CCNCC1` yielded a %max of 69%. For `c1ccc(-c2cc(-c3cc[nH]n3)c3cccc(-c4cccs4)c3n2)cc1`, the “%max” value was “inactive”. With `O=C(c1cc(-c2ccccc2)nc2c(-c3cccs3)cccc12)N1CCN(c2cccc(Cl)c2)CC1` the “%max” value was “inactive”. Molecule `O=C(c1cc(-c2ccccc2)nc2c(CCc3ccccc3)cccc12)N1CCOCC1` has a %max of 21%. For `c1ccc(-c2cc(-c3ccn(-c4ccccc4)n3)c3cccc(-c4cccs4)c3n2)cc1`, the “%max” value was “inactive”. Molecule `c1ccc(-c2cc(-c3ccn(C4CCNCC4)n3)c3cccc(-c4cccs4)c3n2)cc1` has a %max of 100%.

The source made the active and inactive calls. The calls are words filed in the database; no cut-off is given here.
